{"source": "patent US20240368139A1", "about": "“NOVEL MODULATORS OF EHMT1 AND EHMT2 AND THERAPEUTIC USE THEREOF” (Tango Therapeutics, Inc., priority 2021, published 2024)", "target": "T1, human EHMT2 913-1193 (Homo sapiens, UniProt Q96KQ7)", "T1 sequence (Q96KQ7 913-1193)": "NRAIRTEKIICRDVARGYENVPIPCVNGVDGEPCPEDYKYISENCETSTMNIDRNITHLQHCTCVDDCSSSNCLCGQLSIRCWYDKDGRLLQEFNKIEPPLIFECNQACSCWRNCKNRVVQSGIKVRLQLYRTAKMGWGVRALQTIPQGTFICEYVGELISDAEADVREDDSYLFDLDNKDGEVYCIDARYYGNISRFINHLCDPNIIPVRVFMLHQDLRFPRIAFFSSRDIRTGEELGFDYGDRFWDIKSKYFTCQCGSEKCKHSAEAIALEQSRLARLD", "experiment": "EHMT2 enzyme assay on histone peptide substrate (3H-SAM SPA)", "conditions": "EHMT2 IC50, recombinant human EHMT2 913-1193, histone peptide substrate"}
{"smiles": "CNc1cc(C)nc(Nc2ccc(OC)c(C3=CCN(C)CCC3)c2)n1", "note": "[Reference Compound A, reference compound]", "values": [{"measurement": "IC50", "value": "0.1 to 0.5", "unit": "µM"}]}
